Each structure is given as a SMILES string.

Chains of the proteins cited; added tags and fusions are not shown. Residues count along the entry.
UniProt P11416, 183-417 limits assumed: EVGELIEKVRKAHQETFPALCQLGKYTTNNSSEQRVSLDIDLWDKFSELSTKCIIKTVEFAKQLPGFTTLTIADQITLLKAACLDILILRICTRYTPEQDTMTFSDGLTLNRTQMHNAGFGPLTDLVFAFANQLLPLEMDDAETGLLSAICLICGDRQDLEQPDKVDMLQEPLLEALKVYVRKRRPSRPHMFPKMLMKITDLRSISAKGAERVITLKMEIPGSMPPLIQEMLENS
UniProt P22605, 210-444 limits assumed: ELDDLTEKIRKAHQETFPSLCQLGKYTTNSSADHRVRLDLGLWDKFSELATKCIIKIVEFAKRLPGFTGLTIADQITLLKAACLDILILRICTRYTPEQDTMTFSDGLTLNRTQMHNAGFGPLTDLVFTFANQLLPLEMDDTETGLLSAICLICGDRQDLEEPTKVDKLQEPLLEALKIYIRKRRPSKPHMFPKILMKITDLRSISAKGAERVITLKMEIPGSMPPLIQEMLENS
UniProt P18911, 185-419 limits assumed: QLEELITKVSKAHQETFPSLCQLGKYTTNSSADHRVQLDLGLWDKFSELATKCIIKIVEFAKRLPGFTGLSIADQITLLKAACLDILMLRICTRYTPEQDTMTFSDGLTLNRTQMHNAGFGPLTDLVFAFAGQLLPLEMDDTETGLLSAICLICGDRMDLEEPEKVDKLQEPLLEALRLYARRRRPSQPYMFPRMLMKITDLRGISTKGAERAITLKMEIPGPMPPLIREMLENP

As a reminder, the EC50 is the concentration that produces a half-maximal response. What is called IC50 is the concentration needed to halve the response being measured. Read a high IC50 as weaker potency in that assay.

One assay has as its target mouse RAR alpha receptor (Mus musculus, UniProt P11416).
A further assay deals with mouse RAR beta receptor (Mus musculus, UniProt P22605). As to conditions: for β/α ratio: mouse, ratio of relative EC50s RARβ/RARα.
Another assay has as its target mouse RAR gamma receptor (Mus musculus, UniProt P18911). Particulars: for γ/α ratio: mouse, ratio of relative EC50s RARγ/RARα.
A further assay deals with human RAR beta. As to conditions: human receptors.
For the next assay, the system named is human RAR gamma. As to conditions: human receptors.
The target of assay [1] is T1, biotinylated RARα ligand binding domain (Mus musculus, UniProt P11416).
T1 construct: made in house; host or cells: E. coli JM109
The experiment in a line: FlashPlate Scintillation Proximity Binding Assay, [3H]-retinoic acid competition. (In general: SPA uses beads or plates that emit light when radiolabelled molecules are held near them.)

At mouse RAR alpha receptor, `CCOc1c(OC(C)C)cc(C(=O)Nc2ccc(C(=O)O)cc2)cc1OC(C)C` [Compound 31, 4-(4-Ethoxy-3,5-diisopropoxybenzamido)benzoic acid] displayed an LE of 0.36. The β/α ratio on mouse RAR beta receptor came out at 175. In addition, the γ/α ratio at mouse RAR gamma receptor stood at 2190.

Consider `CCOc1c(Cl)cc(C(=O)Nc2ccc(C(=O)O)c(C)c2)cc1Cl` [Compound 18, 4-(3,5-Dichloro-4-ethoxybenzamido)-2-methylbenzoic acid], for which the LE at mouse RAR alpha receptor was 0.51. In addition, the β/α ratio on mouse RAR beta receptor is given as 82. The γ/α ratio on mouse RAR gamma receptor came to 151.

On to `O=C(O)c1ccc(NC(=O)c2cc(Cl)c(OC3CCCC3)c(Cl)c2)cc1` [Compound 15, 4-(3,5-Dichloro-4-(cyclopentyloxy)benzamido)benzoic acid], for which, in the assay with human RAR beta, the “Selectivity β/α ratio human” value is 289-fold and the β/α ratio hu was 289. For the same compound, the LE at mouse RAR alpha receptor is reported as 0.41. At mouse RAR beta receptor, the “Selectivity β/α ratio mouse” value is 33-fold and the β/α ratio is reported as 33. For the same compound, at mouse RAR gamma receptor, the “Selectivity γ/α ratio mouse” value is on record as 452-fold and the γ/α ratio worked out at 452. For the same compound, in the assay on human RAR gamma, the “Selectivity γ/α ratio human” value was 2322-fold and the γ/α ratio hu is given as 2322.

In the case of `COc1c(Cl)cc(C(=O)Nc2ccc(C(=O)O)cc2)cc1OC(C)C` [Compound 51], the LE on mouse RAR alpha receptor worked out at 0.44. On mouse RAR beta receptor, the β/α ratio is recorded as 283. For the same compound, on mouse RAR gamma receptor, the γ/α ratio is on record as 2043.

In the case of `CC(C)Oc1cc(C(=O)Nc2ccc(C(=O)O)cc2)cc(Cl)c1OC(C)C` [Compound 39, 4-(3-chloro-4,5-diisopropoxybenzamido)benzoic acid], on mouse RAR alpha receptor, the LE is given as 0.43. Also, the β/α ratio at mouse RAR beta receptor was 54. Moreover, the γ/α ratio on mouse RAR gamma receptor is given as 838.

As for `CC1=C(/C=C/C(C)=C/C=C/C(C)=C/C(=O)O)C(C)(C)CCC1` [ATRA, all-trans-retinoic acid, reference compound], the EC50 on mouse RAR alpha receptor (read-out: Mean of ATRA EC50, RARα) was 1.51 nM; at mouse RAR gamma receptor (read-out: Mean of ATRA EC50, RARγ), 0.22 nM. The compound further came in with an IC50 in assay [1] of 0.6 nM.

Compound `CC(C)(C)Oc1c(Cl)cc(C(=O)Nc2ccc(C(=O)O)cc2)cc1Cl` [Compound 16, 4-(4-(tert-Butoxy)-3,5-dichlorobenzamido)benzoic acid] gave an LE at mouse RAR alpha receptor of 0.45. Also, the β/α ratio on mouse RAR beta receptor is reported as 426. The γ/α ratio at mouse RAR gamma receptor worked out at 909.

In the case of `CCOc1c(Cl)cc(C(=O)Nc2ccc(C(=O)O)cc2)cc1OC(C)C` [Compound 49, 4-(3-Chloro-4-ethoxy-5-isopropoxybenzamido)benzoic acid], the LE at mouse RAR alpha receptor is recorded as 0.47. Further, the β/α ratio at mouse RAR beta receptor turned out to be 150. The γ/α ratio on mouse RAR gamma receptor is on record as 11,721.

Turning to `CCOc1c(Cl)cc(C(=O)Nc2ccc(C(=O)O)c(C)c2)cc1OC(C)C` [Compound 56, 4-(3-Chloro-4-ethoxy-5-isopropoxybenzamido)-2-methylbenzoic acid], the “Selectivity β/α ratio human” value in the assay on human RAR beta is reported as 290-fold. Also, on mouse RAR beta receptor, the “Selectivity β/α ratio mouse” value is listed as 200-fold and the β/α ratio came out at 200. In addition, on mouse RAR gamma receptor, the “Selectivity γ/α ratio mouse” value is 11,000-fold and the γ/α ratio is listed as 11,000. In the assay with human RAR gamma, the “Selectivity γ/α ratio human” value is given as >13,000-fold and the γ/α ratio hu is > 13,000.

`CCOc1c(Cl)cc(C(=O)Nc2ccc(C(=O)O)cc2)cc1Cl` [Compound 5, 4-(3,5-dichloro-4-ethoxybenzamido)benzoic acid] showed an LE on mouse RAR alpha receptor of 0.45.

The values above are taken from PMC5823845 (Bioorganic & Medicinal Chemistry, 2018).
